This test has as its target Biotinylated HER-2 mimotope peptide. Nature of the test: SPR (Biacore), biotinylated mimotope on streptavidin chip, antibody injected. A general note: Surface plasmon resonance follows binding to a sensor surface in real time, without labels.

A word on the Kd: it is the concentration at which binding is half-saturated. High values mean a looser complex, low ones a tighter complex. Substance Trastuzumab (native) (antibody) had an equilibrium dissociation constant (Kd) of 3.8 nM. Consider heme-exposed Trastuzumab (antibody), for which the equilibrium dissociation constant (Kd) came to 6.6 nM.

The values above are taken from US20220047701A1, “COMBINATION OF HER2/NEU ANTIBODY WITH HEME FOR TREATING CANCER” (INSERM (Institut National de la Santé et de la Recherche …, priority 2018, published 2022).
